Structures can show the parent of a compound that is named as a salt.
Key:
[1] = target: IMP-1 (Serratia marcescens, UniProt P52699); assay type: biochemical; settings: fluorescence assay, CCF2-FA substrate, 2 pM enzyme, 2 hours at 25° C.
[2] = target: VIM-1 (Pseudomonas aeruginosa (strain ATCC 15692 / DSM 22644 / CIP 104116 / JCM 14847 / LMG 12228 / 1C / PRS 101 / PAO1), UniProt A0A0F7KYQ8); test: biochemical; settings: VIM-1 IC50, fluorescence assay, CCF2-FA substrate, 30 pM enzyme, 2 hours at 25° C.
[3] = tested on: Pseudomonas aeruginosa MB9798 vs MB9799; settings: ratio MITC95 PA_9798/MITC95 PA_9799

Chains of the proteins cited; added tags and fusions are not shown.
UniProt P52699, whole entry, looked up, species assumed: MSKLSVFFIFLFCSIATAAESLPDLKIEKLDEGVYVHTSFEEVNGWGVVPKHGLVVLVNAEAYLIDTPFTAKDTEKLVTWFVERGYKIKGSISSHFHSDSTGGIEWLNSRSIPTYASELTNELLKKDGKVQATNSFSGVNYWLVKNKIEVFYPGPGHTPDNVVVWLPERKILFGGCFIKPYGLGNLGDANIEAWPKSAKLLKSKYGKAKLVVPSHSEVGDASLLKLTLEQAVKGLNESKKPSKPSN

| SMILES | IC50 [1] [nM] | IC50 [2] [nM] | Efflux ratio [3] |
| --- | --- | --- | --- |
| Nc1nc2c(-c3ccc(S(=O)(=O)N[C@H]4C[C@H](N)C4)c(S(N)(=O)=O)c3-c3nnn[nH]3)cccc2s1 [Example 71, 4-(2-amino-1,3-benzothiazol-4-yl)-N^1-(trans-3-aminocyclobutyl)-3-(1H-tetrazol-5-yl)benzene-1,2-disulfonamide] | 0.355 | 0.224 | 1.00 |
| Nc1nc2c(-c3ccc(S(=O)(=O)N[C@H]4C[C@H](N)C4)c(S(N)(=O)=O)c3-c3nnn[nH]3)cccc2s1 [Example 98, (1r,3r)-3-(4-(2-aminobenzo[d]thiazol-4-yl)-2-sulfamoyl-3-(1H-tetrazol-5-yl)phenylsulfonamido)cyclobutanaminium 2,2,2-trifluoroacetate] | 0.209 | – | – |
| Nc1nc2c(-c3ccc(S(=O)(=O)N4CC5C(N)C5C4)c(S(N)(=O)=O)c3-c3nnn[nH]3)cccc2s1 [Example 113, (1R,5S,6s)-3-((4-(2-aminobenzo[d]thiazol-4-yl)-2-sulfamoyl-3-(1H-tetrazol-5-yl)phenyl)sulfonyl)-3-azabicyclo[3.1.0]hexan-6-aminium 2,2,2-trifluoroacetate] | 1.12 | – | – |
| Nc1nc2c(-c3ccc(S(=O)(=O)NCC4(N)CCOC4)c(S(N)(=O)=O)c3-c3nnn[nH]3)cccc2s1 (stereo not shown) [Example 114, 3-((4-(2-aminobenzo[d]thiazol-4-yl)-2-sulfamoyl-3-(1H-tetrazol-5-yl)phenylsulfonamido)methyl)tetrahydrofuran-3-aminium formate] | 0.298 | 0.306 | – |
| Nc1nc2c(-c3ccc(S(=O)(=O)NC[C@@H]4CCCN4)c(S(N)(=O)=O)c3-c3nnn[nH]3)cccc2s1 [Example 125, (S)-2-((4-(2-aminobenzo[d]thiazol-4-yl)-2-sulfamoyl-3-(1H-tetrazol-5-yl)phenylsulfonamido)methyl)pyrrolidin-1-ium formate] | 0.286 | – | – |
| Nc1nc2c(-c3ccc(S(=O)(=O)NC[C@H]4CCCN4)c(S(N)(=O)=O)c3-c3nnn[nH]3)cccc2s1 [Example 126, (R)-2-((4-(2-aminobenzo[d]thiazol-4-yl)-2-sulfamoyl-3-(1H-tetrazol-5-yl)phenylsulfonamido)methyl)pyrrolidin-1-ium formate] | 0.222 | – | – |
| C[N+]1(C)CC[C@@H](NS(=O)(=O)c2ccc(-c3cccc4[nH]c(N)nc34)c(-c3nn[nH]n3)c2S(N)(=O)=O)C1.[Cl-] [Example 233, (R)-3-((4-(2-amino-1H-benzo[d]imidazol-4-yl)-2-sulfamoyl-3-(2H-tetrazol-5-yl)phenyl)sulfonamido)-1,1-dimethylpyrrolidin-1-ium chloride] | – | 0.0897 | – |

Reference: patent US10221163B2 (priority 2015, dated 2019)
